ChEMBL document CHEMBL1130384, “Address and message sequences for the nociceptin receptor: a structure-activity study of nociceptin-(1-13)-peptide amide” (J Med Chem, 1997)

Legend:
Mus musculus [1] = organism: Mus musculus; assay: Tested for apparent affinity on electrically stimulated mouse vas deferens; assay type: functional, organism-based
Mus musculus [2] = organism: Mus musculus; assay: Tested for maximal effect induced by agonist; assay type: functional

- EC50 (Mus musculus [1]): 0.0182 µM
Structure (SMILES): CC(C)C[C@H](NC(=O)[C@H](CCCCN)NC(=O)[C@H](CCCNC(=N)N)NC(=O)[C@H](C)NC(=O)[C@H](CO)NC(=O)[C@H](CCCCN)NC(=O)[C@H](CCCNC(=N)N)NC(=O)[C@H](C)NC(=O)CNC(=O)[C@@H](NC(=O)[C@H](Cc1ccccc1)NC(=O)CNC(=O)CNC(=O)[C@@H](N)Cc1ccccc1)[C@@H](C)O)C(=O)N[C@@H](C)C(=O)N[C@@H](CC(N)=O)C(=O)N[C@@H](CCC(N)=O)C(N)=O [NOCICEPTIN-NH2]
- Emax (Mus musculus [2]): -79%
